Source: patent publication US8114641B2, “Methylbutanol as an advanced biofuel” (Synthetic Genomics, Inc., priority 2007, dated 2012)
Where two headings read alike, the source gives them in different places.

Key:
[1] = Physical properties of alcohol fuels and gasoline; type: physicochemical
[2] = Fuel properties of the neat fuel

In the case of Butanol [reference compound], the “Boiling Point, max” value [1] is reported as 118 °C, the “Flash Point, min” value [1] is reported as 36 °C and the “Freezing Point, max” value [1] is reported as −90 °C. The “Energy Content” value (10% blend in gasoline) was 113,320 BTU/gal, the “Pump Octane (R + M)/2” value (10% blend in gasoline, RBOB with Pump Octane 80.85 and RVP 7.37) was 83.3 and the “Reid Vapor Pressure” value (measured with 9.5% volumetric blend in RBOB) was ~7^B psi. For the same substance, the “Energy Content” value [2] was 107,196 BTU/gal, the “Reid Vapor Pressure” value [2] was 0.7 psi and the “Pump Octane (R + M)/2” value ([2]; extrapolated from tests on blended fuels (blending octanes)) was 105.7.
